Results reported in patent publication US20220194997A1, “SUMO PEPTIDES FOR TREATING NEURODEGENERATIVE DISEASES” (The Chinese University of Hong Kong, priority 2019, published 2022).

Experiments:
Type in all cases: cell-based
SH-SY5Y cells [1] = test: MTT cell viability assay, peptide alone; details: corresponding concentration, data not shown
SH-SY5Y cells [2] = test: MTT cell viability assay, aged α-synuclein cytotoxicity
SH-SY5Y cells [3] = test: MTT cell viability assay, aged NACore cytotoxicity

Structure (SMILES): CC[C@H](C)[C@H](NC(=O)[C@H](Cc1ccc(O)cc1)NC(=O)[C@H](CCC(=O)O)NC(=O)CNC(=O)[C@H](CCC(=O)O)NC(=O)[C@H](CCCCN)NC(=O)[C@H](CCCCN)NC(=O)[C@@H](N)CC(=O)O)C(=O)N[C@@H](CCCCN)C(=O)N[C@@H](CC(C)C)C(=O)N[C@@H](CCCCN)C(=O)N[C@H](C(=O)N[C@H](C(=O)NCC(=O)N[C@@H](CCC(N)=O)C(=O)N[C@@H](CC(=O)O)C(=O)N[C@@H](CO)C(=O)N[C@@H](CO)C(=O)N[C@@H](CCC(=O)O)C(=O)N[C@H](C(=O)N[C@@H](Cc1c[nH]cn1)C(=O)N[C@@H](Cc1ccccc1)C(=O)N[C@@H](CCCCN)C(=O)N[C@H](C(=O)N[C@@H](CCCCN)C(=O)N[C@@H](CCSC)C(=O)N[C@H](C(=O)N[C@H](C(=O)N[C@@H](Cc1c[nH]cn1)C(=O)N[C@@H](CC(C)C)C(=O)N[C@@H](CCCCN)C(=O)N[C@@H](CCCCN)C(=O)N[C@@H](CC(C)C)C(=O)N[C@@H](CCCCN)C(=O)N[C@@H](CCC(=O)O)C(=O)N[C@@H](CO)C(=O)N[C@@H](Cc1ccc(O)cc1)C(=O)N[C@@H](CS)C(=O)N[C@@H](CCC(N)=O)C(=O)N[C@@H](CCCNC(=N)N)C(=O)N[C@@H](CCC(N)=O)C(=O)O)[C@@H](C)O)[C@@H](C)O)C(C)C)[C@@H](C)CC)[C@@H](C)CC)C(C)C [SUMO1(15-55)]
- cell viability with peptide alone (SH-SY5Y cells [1]): did not affect cell viability
- rescue of cell viability from aged α-synuclein cytotoxicity (SH-SY5Y cells [2]; equimolar ratio): complete rescue
- rescue of cell viability from aged α-synuclein cytotoxicity (SH-SY5Y cells [2]; substoichiometric amounts): partial rescue
- rescue of cell viability from aged NACore cytotoxicity (SH-SY5Y cells [3]; equimolar ratio): complete rescue
- rescue of cell viability from aged NACore cytotoxicity (SH-SY5Y cells [3]; substoichiometric amounts): partial rescue
